{"sequences": {"note": "Sequences of proteins named here, by UniProt entry; tags and fusion partners are left off. Residues count along the entry.", "UniProt P08311, 21-244 limits assumed": "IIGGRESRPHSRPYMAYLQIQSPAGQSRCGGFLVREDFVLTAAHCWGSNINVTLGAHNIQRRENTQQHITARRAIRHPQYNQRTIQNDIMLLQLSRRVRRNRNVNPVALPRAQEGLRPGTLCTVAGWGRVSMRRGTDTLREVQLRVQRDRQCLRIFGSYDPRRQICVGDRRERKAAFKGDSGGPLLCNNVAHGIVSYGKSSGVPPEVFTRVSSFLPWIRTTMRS"}, "source": "patent US7417024B2", "about": "“Template-fixed peptidomimetics as inhibitors of serine proteases” (Polyphor Ltd., priority 2001, dated 2008)", "origin": "cited, not measured here", "target": "cathepsin G (Homo sapiens, UniProt P08311)", "conditions": "no value given; cited from earlier work", "data": [{"smiles": "CC[C@H](C)[C@@H]1NC(=O)[C@@H]2CCCN2C(=O)[C@@H]2CCCN2C(=O)[C@H]([C@@H](C)CC)NC(=O)[C@H](CO)NC(=O)[C@H](CCCCN)NC(=O)[C@H]([C@@H](C)O)NC(=O)[C@@H]2CSSC[C@H](NC1=O)C(=O)N[C@@H](Cc1ccccc1)C(=O)N1CCC[C@H]1C(=O)N[C@@H](CC(=O)O)C(=O)NCC(=O)N[C@@H](CCCNC(=N)N)C(=O)N2", "values": [{"measurement": "inhibition of cathepsin G", "value": "inhibited"}]}]}
